Drawing on PubChem BioAssay AID2690 (NMMLSC, 2010), this text covers superoxide response (% of plate mean) for 24 molecules.

Molecules are shown by their SMILES. The entries are a selection whose mix differs from that of the whole data set. Some of these compounds have results that are not shown, active ones among them. Activity calls are given as the source filed them.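 The calls were made as follows: active = superoxide response under a set limit, about three screen SD below normal (cut at about 65% in these data); inactive = the rest.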

This assay can be described thus: yeast aging ROS inhibitors as calorie-restriction mimetics – HTS, primary screen (AID 2690).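 Also: yeast aged for seven days with compound at 30 °C before DHE staining; 100% = average MFI of all compound-treated wells on the plate with controls excluded.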 The following applies: S. cerevisiae aged cells, superoxide DHE fluorescence; at 10 µM; stronger effect = lower value.
In the case of `Cc1ccc(C(=O)NCC2(N3CCCCC3)CCCCC2)cc1`, the superoxide response (% of plate mean) was inactive: 85.5%.

Consider `COc1cc(SC)ccc1C(=O)NCC1(N(C)C)CCCCC1`, for which the superoxide response (% of plate mean) was inactive: 91%.

On to `CCN(CC)CC(C)C(C)OC(=O)C(O)(c1ccccc1)c1ccccc1` (centres undefined), for which the superoxide response (% of plate mean) is inactive: 94.6%.

As for `CC(C)N1C(=O)CC2(CCN(CCOC(=O)C(O)(c3ccccc3)c3ccccc3)CC2)C1=O`, the superoxide response (% of plate mean) was inactive: 91.2%.

Take `CN1[C@@H]2CC[C@H]1CC(OC(=O)C(O)(c1ccccc1)c1ccccc1)C2` (some centres undefined): the superoxide response (% of plate mean) is inactive: 101%.

Take `O=C(NCC1(N2CCCCC2)CCCCC1)c1cc([N+](=O)[O-])ccc1Cl`: the superoxide response (% of plate mean) was inactive: 105%.

Regarding `COc1ccc(C(=O)NCC2(N(C)C)CCCCC2)cc1`, the superoxide response (% of plate mean) is inactive: 112%.

On to `O=C(NCC1(N2CCCCC2)CCCCC1)c1cccc(Br)c1`, for which the superoxide response (% of plate mean) was inactive: 85.5%.

On to `Cc1cc(C(=O)NCC2(N3CCCCC3)CCCCC2)ccc1[N+](=O)[O-]`, for which the superoxide response (% of plate mean) was inactive: 112%.

With `CCN1CCCC(OC(=O)C2(O)c3ccccc3C=Cc3ccccc32)C1` (centres undefined), the superoxide response (% of plate mean) is inactive: 109%.

Consider `O=C(NCC1(N2CCCCC2)CCCCC1)c1cc(F)c(F)cc1Cl`, for which the superoxide response (% of plate mean) was inactive: 106%.

As to `C=CCN1CCN(CCOC(=O)C(O)(c2ccccc2)c2ccccc2)CC1`, the superoxide response (% of plate mean) was inactive: 99.3%.

As to `CN(C)C1CCCC1OC(=O)C(O)(c1ccccc1)c1ccccc1` (centres undefined), the superoxide response (% of plate mean) was inactive: 94.8%.

Regarding `CN(C)c1ccc(C(=O)NCC2(N(C)C)CCCCC2)cc1`, the superoxide response (% of plate mean) is inactive: 91.1%.

On to `Cc1ccccc1C(=O)NCC1(N2CCCCC2)CCCCC1`, for which the superoxide response (% of plate mean) was inactive: 88.2%.

In the case of `O=C(NCC1(N2CCCCC2)CCCCC1)c1cccc(Cl)c1`, the superoxide response (% of plate mean) is inactive: 98.4%.

With `COc1ccc(Cl)cc1C(=O)NCC1(N(C)C)CCCCC1`, the superoxide response (% of plate mean) is inactive: 105%.

For `COc1cccc(C(=O)NCC2(N3CCCCC3)CCCCC2)c1`, the superoxide response (% of plate mean) was inactive: 101%.

For the molecule `COc1cc(C(=O)NCC2(N(C)C)CCCCC2)c([N+](=O)[O-])cc1OC`, the superoxide response (% of plate mean) was active: 42%.

Turning to `CN(C)C1(CNC(=O)c2ccc(Br)cc2)CCCCC1`, the superoxide response (% of plate mean) is inactive: 96%.

In the case of `CC(C)Oc1ccc(C(=O)NCC2(N(C)C)CCCCC2)cc1`, the superoxide response (% of plate mean) is inactive: 109%.

Regarding `CN(C)c1cccc(C(=O)NCC2(N(C)C)CCCCC2)c1`, the superoxide response (% of plate mean) was inactive: 80.3%.

With `COc1ccc(Br)c(C(=O)NCC2(N3CCCCC3)CCCCC2)c1`, the superoxide response (% of plate mean) was inactive: 93.1%.

For `O=C(OC1CN2CCC1CC2)C(CO)(c1ccccc1)c1ccccc1` (centres undefined), the superoxide response (% of plate mean) is inactive: 99.4%.
